Assay results reported in patent publication US5140037A, “Treatment of central nervous system disorders with imidazole angiotensin-II receptor antagonists” (E. I. du Pont de Nemours and Company, priority 1990, dated 1992).

Sequences of proteins named here, by UniProt entry; tags and fusion partners are left off. A change or cut given only in a name is not applied to a line headed by its entry.
UniProt P01019: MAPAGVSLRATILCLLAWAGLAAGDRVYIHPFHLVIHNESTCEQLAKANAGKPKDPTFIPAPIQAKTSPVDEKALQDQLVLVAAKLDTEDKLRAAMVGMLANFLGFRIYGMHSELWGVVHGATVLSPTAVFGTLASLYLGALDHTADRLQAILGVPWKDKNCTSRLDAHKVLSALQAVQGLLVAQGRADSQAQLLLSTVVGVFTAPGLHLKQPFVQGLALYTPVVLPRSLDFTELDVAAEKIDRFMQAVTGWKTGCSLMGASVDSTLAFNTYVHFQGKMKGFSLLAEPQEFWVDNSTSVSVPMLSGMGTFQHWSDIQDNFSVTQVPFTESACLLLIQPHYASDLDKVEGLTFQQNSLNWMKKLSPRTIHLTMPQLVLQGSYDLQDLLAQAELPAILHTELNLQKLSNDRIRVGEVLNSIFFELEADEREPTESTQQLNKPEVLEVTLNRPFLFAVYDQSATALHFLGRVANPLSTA

Target: T1, AII-2 receptor (Rattus norvegicus, UniProt P35351)
T1 sequence (P35351 1-363): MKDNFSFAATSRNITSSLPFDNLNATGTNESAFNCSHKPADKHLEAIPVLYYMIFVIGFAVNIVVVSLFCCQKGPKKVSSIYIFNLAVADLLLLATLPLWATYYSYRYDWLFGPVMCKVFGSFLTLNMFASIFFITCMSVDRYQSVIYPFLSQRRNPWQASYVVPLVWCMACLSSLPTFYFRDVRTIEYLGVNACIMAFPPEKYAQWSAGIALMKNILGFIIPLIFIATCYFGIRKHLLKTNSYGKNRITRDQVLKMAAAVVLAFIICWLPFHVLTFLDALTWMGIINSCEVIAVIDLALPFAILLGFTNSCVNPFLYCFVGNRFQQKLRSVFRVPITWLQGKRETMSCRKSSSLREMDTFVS

“AII: Angiotensin II (AII), a circulating hormone, now thought to act as a neuropeptide in the central nervous system (DRVYIHPF; Angiotensin-2; UniProt P01019 25-32, looked up)” gave a pIC50 of 9.22.

pIC50: −log10 of the molar value.
